Assay results published in patent US9694016B2 (Novartis AG, priority 2013, dated 2017).

By UniProt entry, the sequences of proteins in these tests, tags left out.
UniProt P04049, whole entry Y340E/Y341E: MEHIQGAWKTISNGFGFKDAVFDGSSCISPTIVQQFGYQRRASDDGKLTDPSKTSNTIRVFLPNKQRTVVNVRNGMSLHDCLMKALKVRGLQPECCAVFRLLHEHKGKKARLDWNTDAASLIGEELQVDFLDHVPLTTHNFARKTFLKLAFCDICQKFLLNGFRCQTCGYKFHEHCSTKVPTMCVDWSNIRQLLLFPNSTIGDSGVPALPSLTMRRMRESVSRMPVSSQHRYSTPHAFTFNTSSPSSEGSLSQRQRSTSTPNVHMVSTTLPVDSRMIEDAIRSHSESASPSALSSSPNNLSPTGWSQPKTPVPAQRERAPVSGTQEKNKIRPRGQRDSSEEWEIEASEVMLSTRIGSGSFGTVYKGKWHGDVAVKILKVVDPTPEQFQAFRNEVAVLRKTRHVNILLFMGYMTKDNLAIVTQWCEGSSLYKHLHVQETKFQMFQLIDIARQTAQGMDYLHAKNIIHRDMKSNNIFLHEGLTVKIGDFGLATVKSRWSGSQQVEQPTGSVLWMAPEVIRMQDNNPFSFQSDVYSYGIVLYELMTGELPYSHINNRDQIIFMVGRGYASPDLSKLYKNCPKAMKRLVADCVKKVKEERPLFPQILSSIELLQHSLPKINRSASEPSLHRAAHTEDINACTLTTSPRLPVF

target: C-Raf FL (full-length C-Raf protein, Y340E and Y341E activating mutations) (Homo sapiens (Human), UniProt P04049, Y340E/Y341E); type: biochemical; conditions: AlphaScreen, 60 min pre-incubation, 1 hour reaction; read-out: c-Raf FL IC-50

SMILES | IC50 [nM]
Cc1ncc(NC(=O)c2cccc(C(F)(F)F)c2)cc1-c1cc(N2CCOCC2)nc(N(C)C)n1 [Example 760, N-(5-(2-(dimethylamino)-6-morpholinopyrimidin-4-yl)-6-methylpyridin-3-yl)-3-(trifluoromethyl)benzamide] | 3.3
Cc1ccc(C(=O)Nc2cccc(C(F)(F)F)c2)cc1-c1cc(N2CCOCC2)nc(N2CC(O)C2)n1 [Example 766, 3-(2-(3-hydroxyazetidin-1-yl)-6-morpholinopyrimidin-4-yl)-4-methyl-N-(3-(trifluoromethyl)phenyl)benzamide] | 0.5
Cc1ncc(NC(=O)c2ccnc(C(C)(C)C#N)c2)cc1-c1cc(N2CCOCC2)nc(N2CC(O)C2)n1 [Example 767, 2-(2-cyanopropan-2-yl)-N-(5-(2-(3-hydroxyazetidin-1-yl)-6-morpholinopyrimidin-4-yl)-6-methylpyridin-3-yl)isonicotinamide] | 12.1
Cc1ncc(NC(=O)c2cccc(C(F)F)c2)cc1-c1cc(N2CCOCC2)nc(N2CC(O)C2)n1 [Example 770, 3-(difluoromethyl)-N-(5-(2-(3-hydroxyazetidin-1-yl)-6-morpholinopyrimidin-4-yl)-6-methylpyridin-3-yl)benzamide] | 1.3
Cc1ncc(NC(=O)c2cccc(C(F)(F)F)c2)cc1-c1cc(N2CCOCC2)nc(N2CCNCC2)n1 [Example 775, N-(6-methyl-5-(6-morpholino-2-(piperazin-1-yl)pyrimidin-4-yl)pyridin-3-yl)-3-(trifluoromethyl)benzamide] | 4.6
Cc1ccc(NC(=O)c2ccnc(C(C)(F)F)c2)cc1-c1cc(N2CCOCC2)nc(OC2CNC2)n1 [Example 779, N-(3-(2-(azetidin-3-yloxy)-6-morpholinopyrimidin-4-yl)-4-methylphenyl)-2-(1,1-difluoroethyl)isonicotinamide] | 0.7
Cc1ccc(NC(=O)c2ccnc(C(F)(F)F)c2)cc1-c1cc(N2CCOCC2)nc(OC2CNC2)n1 [Example 780, N-(3-(2-(azetidin-3-yloxy)-6-morpholinopyrimidin-4-yl)-4-methylphenyl)-2-(trifluoromethyl)isonicotinamide] | 0.8
Cc1ncc(NC(=O)c2ccnc(C(C)(C)C#N)c2)cc1-c1cc(N2CCOCC2)nc(N2C(=O)OC[C@@H]2C)n1 [Example 784, (S)-2-(2-cyanopropan-2-yl)-N-(6-methyl-5-(2-(4-methyl-2-oxooxazolidin-3-yl)-6-morpholinopyrimidin-4-yl)pyridin-3-yl)isonicotinamide] | 51
Cc1ccc(NC(=O)c2ccnc(C(F)F)c2)cc1-c1cc(N2CCOCC2)nc(N2C(=O)OC[C@@H]2C)n1 [Example 785, (S)-2-(difluoromethyl)-N-(4-methyl-3-(2-(4-methyl-2-oxooxazolidin-3-yl)-6-morpholinopyrimidin-4-yl)phenyl)isonicotinamide] | 3.1
Cc1ccc(NC(=O)c2ccnc(C(C)(C)C#N)c2)cc1-c1cc(N2CCOCC2)nc(NC2CNC2)n1 [Example 786, N-(3-(2-(azetidin-3-ylamino)-6-morpholinopyrimidin-4-yl)-4-methylphenyl)-2-(2-cyanopropan-2-yl)isonicotinamide] | 3.4
Cc1ncc(NC(=O)c2cccc(C(F)(F)F)c2)cc1-c1cc(N2CCOCC2)nc(C(C)(C)O)n1 [Example 788, N-(5-(2-(2-hydroxypropan-2-yl)-6-morpholinopyrimidin-4-yl)-6-methylpyridin-3-yl)-3-(trifluoromethyl)benzamide] | 38
Cc1ncc(NC(=O)c2ccnc(C(C)(C)F)c2)cc1-c1cc(N2CCOCC2)n2nccc2n1 [Example 790, 2-(2-fluoropropan-2-yl)-N-(6-methyl-5-(7-morpholinopyrazolo[1,5-a]pyrimidin-5-yl)pyridin-3-yl)isonicotinamide] | 1.3
Cc1ncc(NC(=O)c2ccnc(C(C)(C)C#N)c2)cc1-c1cc(N2CCOCC2)n2nccc2n1 [Example 791, 2-(2-cyanopropan-2-yl)-N-(6-methyl-5-(7-morpholinopyrazolo[1,5-a]pyrimidin-5-yl)pyridin-3-yl)isonicotinamide] | 2.6
Cc1ncc(NC(=O)c2cccc(C(F)(F)F)c2)cc1-c1cc(N2CCOCC2)n2nccc2n1 [Example 793] | 0.3

The remaining compounds from weak to strong by IC50, led by results:

IC50 [nM] | SMILES
10600 | Cc1ncc(NC(=O)c2cccc(C(F)(F)F)c2)cc1-c1cc(N2CCOCC2)nc(OC2CNC2)n1 [Example 776, N-(5-(2-(azetidin-3-yloxy)-6-morpholinopyrimidin-4-yl)-6-methylpyridin-3-yl)-3-(trifluoromethyl)benzamide]
8000 | Cc1ccc(NC(=O)c2ccnc(C(C)(C)C#N)c2)cc1-c1cc(N2CCOCC2)nc(N2CC(O)C2)n1 [Example 769]
7.9 | Cc1ncc(NC(=O)c2ccnc(C(C)(C)O)c2)cc1-c1cc(N2CCOCC2)n2nccc2n1 [Example 797, 2-(2-hydroxypropan-2-yl)-N-(6-methyl-5-(7-morpholinopyrazolo[1,5-a]pyrimidin-5-yl)pyridin-3-yl)isonicotinamide]
6.5 | Cc1ccc(NC(=O)c2ccnc(C(C)(C)C#N)c2)cc1-c1cc(N2CCOCC2)nc(N2C(=O)OC[C@@H]2C)n1 [Example 782, (S)-2-(2-cyanopropan-2-yl)-N-(4-methyl-3-(2-(4-methyl-2-oxooxazolidin-3-yl)-6-morpholinopyrimidin-4-yl)phenyl)isonicotinamide]
2.8 | Cc1ncc(NC(=O)c2cccc(C(F)(F)F)c2)cc1-c1cc(N2CCOCC2)nc(N2CC(O)C2)n1 [Example 768, N-(5-(2-(3-hydroxyazetidin-1-yl)-6-morpholinopyrimidin-4-yl)-6-methylpyridin-3-yl)-3-(trifluoromethyl)benzamide]
2.7 | Cc1ncc(NC(=O)c2cccc(C(F)(F)F)c2)cc1-c1cc(N2CCOCC2)nc(N2C(=O)OC[C@@H]2C)n1 [Example 781, (S)—N-(6-methyl-5-(2-(4-methyl-2-oxooxazolidin-3-yl)-6-morpholinopyrimidin-4-yl)pyridin-3-yl)-3-(trifluoromethyl)benzamide]
2.1 | Cc1ccc(NC(=O)c2cccc(C(F)(F)F)c2)cc1-c1cc(N2CCOCC2)nc(N2C(=O)OC[C@@H]2C)n1 [Example 783, (S)—N-(4-methyl-3-(2-(4-methyl-2-oxooxazolidin-3-yl)-6-morpholinopyrimidin-4-yl)phenyl)-3-(trifluoromethyl)benzamide]
1.7 | Cc1ncc(NC(=O)c2cccc(C(F)(F)F)c2)cc1-c1cc(N2CCOCC2)nc(NC2CNC2)n1 [Example 787, N-(5-(2-(azetidin-3-ylamino)-6-morpholinopyrimidin-4-yl)-6-methylpyridin-3-yl)-3-(trifluoromethyl)benzamide]
0.9 | Cc1ccc(NC(=O)c2ccnc(C(C)C)c2)cc1-c1cc(N2CCOCC2)nc(OC2CNC2)n1 [Example 778, N-(3-(2-(azetidin-3-yloxy)-6-morpholinopyrimidin-4-yl)-4-methylphenyl)-2-isopropylisonicotinamide]
0.9 | Cc1ccc(NC(=O)c2cnnc(C(C)(C)C#N)c2)cc1-c1cc(N2CCOCC2)n2nccc2n1 [Example 795, 6-(2-cyanopropan-2-yl)-N-(4-methyl-3-(7-morpholinopyrazolo[1,5-a]pyrimidin-5-yl)phenyl)pyridazine-4-carboxamide]
0.8 | CCOc1nc(-c2cc(NC(=O)c3ccnc(C(C)(C)C#N)c3)ccc2C)cc(N2CCOCC2)n1 [Example 764, 2-(2-cyanopropan-2-yl)-N-(3-(2-ethoxy-6-morpholinopyrimidin-4-yl)-4-methylphenyl)isonicotinamide]
0.8 | Cc1ccc(NC(=O)c2ccnc(C(C)C)c2)cc1-c1cc(N2CCOCC2)nc(N2CC(O)C2)n1 [Example 771, N-(3-(2-(3-hydroxyazetidin-1-yl)-6-morpholinopyrimidin-4-yl)-4-methylphenyl)-2-isopropylisonicotinamide]
0.8 | Cc1ccc(NC(=O)c2ccnc(C(C)(C)O)c2)cc1-c1cc(N2CCOCC2)n2nccc2n1 [Example 794, 2-(2-hydroxypropan-2-yl)-N-(4-methyl-3-(7-morpholinopyrazolo[1,5-a]pyrimidin-5-yl)phenyl)isonicotinamide]
0.6 | Cc1ccc(NC(=O)c2ccnc(C(C)(F)F)c2)cc1-c1cc(N2CCOCC2)nc(N2CC(O)C2)n1 [Example 772, 2-(1,1-difluoroethyl)-N-(3-(2-(3-hydroxyazetidin-1-yl)-6-morpholinopyrimidin-4-yl)-4-methylphenyl)isonicotinamide]
0.4 | Cc1ccc(NC(=O)c2ccnc(C(F)(F)F)c2)cc1-c1cc(N2CCOCC2)nc(N2CC(O)C2)n1 [Example 773, N-(3-(2-(3-hydroxyazetidin-1-yl)-6-morpholinopyrimidin-4-yl)-4-methylphenyl)-2-(trifluoromethyl)isonicotinamide]
0.3 | Cc1ccc(NC(=O)c2ccnc(C(C)(C)C#N)c2)cc1-c1cc(N2CCOCC2)n2nccc2n1 [Example 792, 2(2-cyanopropan-2-yl)-N-(4-methyl-3(7-morpholinopyrazolo[1,5-a]pyrimidin-5-yl)phenyl)isonicotinamide]
0.2 | CCOc1nc(-c2cc(NC(=O)c3ccnc(C(C)(F)F)c3)ccc2C)cc(N2CCOCC2)n1 [Example 761, 2-(1,1-difluoroethyl)-N-(3-(2-ethoxy-6-morpholinopyrimidin-4-yl)-4-methylphenyl)isonicotinamide]
0.2 | CCOc1nc(-c2cc(NC(=O)c3ccnc(C(F)(F)F)c3)ccc2C)cc(N2CCOCC2)n1 [Example 762, N-(3-(2-ethoxy-6-morpholinopyrimidin-4-yl)-4-methylphenyl)-2-(trifluoromethyl)isonicotinamide]
0.2 | Cc1ccc(NC(=O)c2cccc(C(F)(F)F)c2)cc1-c1cc(N2CCOCC2)nc(N2CC(O)C2)n1 [Example 765, N-(3-(2-(3-hydroxyazetidin-1-yl)-6-morpholinopyrimidin-4-yl)-4-methylphenyl)-3-(trifluoromethyl)benzamide]
0.2 | Cc1ccc(NC(=O)c2ccnc(C3(C#N)CC3)c2)cc1-c1cc(N2CCOCC2)n2nccc2n1 [Example 796, 2-(1-cyanocyclopropyl)-N-(4-methyl-3-(7-morpholinopyrazolo[1,5-a]pyrimidin-5-yl)phenyl)isonicotinamide]
